Read-outs that look alike come from different tables or passages of the source.
Experiments:
SK-OV3 (ovarian cancer) = assay: In vitro cytotoxicity against human cancer cell lines; settings: read-out: In vitro cytotoxicities, IC50
A-431 (vulvar cancer) = assay: as above; settings: read-out: In vitro cytotoxicities, IC50
[1] = DLS, distilled water, concentrations of 0.1 to 0.5%
MES-SA (uterine cancer) = assay: In vitro cytotoxicity against human cancer cell lines; settings: read-out: In vitro cytotoxicities, IC50
MCF (breast cancer) = assay: as above; settings: read-out: In vitro cytotoxicities, IC50
[2] = for Platinum concentration, Blood / Platinum concentration, Kidney / Platinum concentration, Liver / Platinum concentration, Lung / Platinum concentration, Normal muscle / Platinum concentration, Tumor tissue: Sarcoma-180 tumor-bearing rats; for Ratio of tumor/normal tissues (TTR): platinum concentration tumor tissue/normal muscle
[3] = 2 hrs after tail vein injection
[4] = 24 hrs after tail vein injection

Substance | IC50 (SK-OV3 (ovarian cancer)) | IC50 (A-431 (vulvar cancer)) | average diameter of nanoparticles [1] | IC50 (MES-SA (uterine cancer)) | IC50 (MCF (breast cancer)) | Platinum concentration, Blood [2, 3] | Platinum concentration, Kidney [2, 3] | Platinum concentration, Liver [2, 3] | Platinum concentration, Lung [2, 3] | Platinum concentration, Normal muscle [2, 3] | Platinum concentration, Tumor tissue [2, 3] | Ratio of tumor/normal tissues (TTR) [2, 3] | Platinum concentration, Blood [2, 4] | Platinum concentration, Kidney [2, 4] | Platinum concentration, Liver [2, 4] | Platinum concentration, Lung [2, 4] | Platinum concentration, Normal muscle [2, 4] | Platinum concentration, Tumor tissue [2, 4] | Ratio of tumor/normal tissues (TTR) [2, 4]
tris[methoxy-poly(ethylene glycol)350]tris[(cis-amminecyclohexylamineplatinum(II) glycylphenylalanyl-leusyl-malonate)]cyclotriphosphazene [Example 3] | 60.6 µM | 37.2 µM | 105 nm | 47.1 µM | 26.6 µM | – | – | – | – | – | – | – | – | – | – | – | – | – | –
tris[methoxy-poly(ethylene glycol)550]tris[cis-dicyclohexylamineplatinum(II) glycylphenylalanylleusylaspartate]cyclo-triphosphazene [Example 1] | 79 µM | 73.1 µM | about 200 nm | 62.6 µM | 46.7 µM | 6.00 mg/kg | 18.9 mg/kg | 5.63 mg/kg | 3.18 mg/kg | 1.09 mg/kg | 24.3 mg/kg | 24.3/1.09 = 22.3 | 1.08 mg/kg | 17.3 mg/kg | 6.43 mg/kg | 1.56 mg/kg | 0.23 mg/kg | 19.1 mg/kg | 19.1/0.23 = 83.0
